This is an account of results in US12291537B2, “Compounds, compositions and methods” (priority 2022, dated 2025).

For orientation: pEC50 means the negative decadic logarithm of the EC50, by convention in mol/L. High values mean a low EC50, low ones a high EC50. One may read the pIC50 as the negative decadic logarithm of the IC50, by convention in mol/L. The low end stands for a large IC50, the high end for a small IC50.

pEC50, pIC50: −log10 of the molar value.

In test [1] the test system is NCI-N87 cells. As to the kind of experiment: Cell based binding of HER2 ADCs by flow cytometry. More on the design: species or system human.
Another test relates to SK-BR-3 cells. As to the kind of experiment: Cell based binding of HER2 ADCs by flow cytometry. Further details: species or system human. A general note: A flow cytometer gives signals particle by particle.
Test [2] concerns BT-474 cells. As to the kind of experiment: Cell based binding of HER2 ADCs by flow cytometry. More on the design: species or system human.
For another test, the system named is JIMT-1 cells. In words: Cell based binding of HER2 ADCs by flow cytometry. Further details: species or system human.
Another test concerns MDA-MB-231 cells. In words: Cell based binding of HER2 ADCs by flow cytometry. The following applies: Example 3. Further details: species or system human. Here is the method:
Briefly, The NCI-N87, SK-BR-3, BT-474, JIMT-1, MDA-MB-231 and MDA-MB-468 cells were incubated with titrated antibody drug conjugates (from 100 nM, 5 folds dilution, 8 points) at 4° C. for 60 minutes. Then cells were washed with FACS buffer twice and stained with fluorescent conjugated secondary antibody (Alexa Fluor® 647 Goat Anti-Human IgG, Jackson, 109-605-098) at 4° C. for 60 minutes. After that the cells were washed twice and analyzed by flow cytometry.

The test system of the next test is MDA-MB-468 cells. In words: Cell based binding of HER2 ADCs by flow cytometry. More on the design: species or system human.
Test [3] concerns NCI-N87 cells. As to the kind of experiment: Cytotoxicity of HER2 ADCs (CellTiter-Glo Luminescent Cell Viability Assay). It is filed as cell-based, human. A general note: Cellular ATP, detected with luciferase, serves as a proxy for viable cell number.
The subject of test [4] is BT-474 cells. The test is described as above. The test is classed as cell-based, human.

Take Trastuzumab-DXd: the Max with NCI-N87 cells [1] (Example 2) was 276178 MFI; with NCI-N87 cells [1] (Example 3), 215714 MFI; with SK-BR-3 cells (Example 2) it was 220188 MFI; in the test on SK-BR-3 cells (Example 3), 185879 MFI; with BT-474 cells [2] (Example 2), 161192 MFI; in the test with BT-474 cells [2] (Example 3) it was 174842 MFI. The Max is listed as 31787 MFI in the test on JIMT-1 cells (Example 2); 31720 MFI in the test on JIMT-1 cells (Example 3); 2913 MFI in the test with MDA-MB-231 cells; 115 MFI in the test on MDA-MB-468 cells (Example 2); 146 MFI in the test on MDA-MB-468 cells (Example 3). Besides, the negative-log EC50 (pEC50) was 8.53 in the test with NCI-N87 cells [1] (Example 2, 4° C., 60 minutes); 8.47 in the test with NCI-N87 cells [1] (Example 3 (DAR comparison)); 8.52 with SK-BR-3 cells (Example 2); 8.34 in the test on SK-BR-3 cells (Example 3); 8.31 in the test with BT-474 cells [2] (Example 2); 8.55 in the test with BT-474 cells [2] (Example 3). The pEC50 is 8.79 in the test on JIMT-1 cells (Example 2), 8.87 in the test on JIMT-1 cells (Example 3) and 8.80 in the test with MDA-MB-231 cells. Further, the pIC50 with NCI-N87 cells [3] (Example 4, 6 days) was 9.61; in the test on NCI-N87 cells [3] (Example 5 (DAR comparison), 6 days), 9.54; in the test with BT-474 cells [4] (Example 4, 6 days), 10.23; with BT-474 cells [4] (Example 5, 6 days), 10.22.
